Values of other authors as cited in patent publication US20020103261A1, “Compositions for injection or intravenous administration for the treatment of internal infection or inflammation in humans and animals” (priority 2000, published 2002).

Conditions: inactive metabolites after enzymatic degradation; cited from earlier work

Compound: Cc1ccc(C(C)C)c(O)c1 [isopropyl-cresol, 5-methyl-2[1-methylethyl]phenol]
- metabolites excreted in the urine: approx. 90%
